Values quoted from earlier work as cited in patent US20100286257A1, “Methods Of Use Of Nitroalkane Compositions In Dermatologic Applications To Prevent or Treat Skin Aging” (priority 2009, published 2010).

By UniProt entry, the sequences of proteins in these tests, tags left out. Where a name states a change or a piece, a line headed by the entry shows the natural chain unless it says otherwise.
UniProt P46406: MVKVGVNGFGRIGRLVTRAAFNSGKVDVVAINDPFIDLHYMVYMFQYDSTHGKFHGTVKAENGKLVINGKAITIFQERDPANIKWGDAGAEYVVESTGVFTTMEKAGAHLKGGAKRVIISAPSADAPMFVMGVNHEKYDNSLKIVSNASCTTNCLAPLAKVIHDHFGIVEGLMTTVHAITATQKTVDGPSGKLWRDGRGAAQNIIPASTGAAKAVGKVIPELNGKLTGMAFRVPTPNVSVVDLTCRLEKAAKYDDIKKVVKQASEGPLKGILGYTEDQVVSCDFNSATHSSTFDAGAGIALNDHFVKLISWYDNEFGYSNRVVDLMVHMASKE

Target: Glyceraldehyde-3-phosphate dehydrogenase (GAPDH) (Oryctolagus cuniculus, UniProt P46406)
Conditions: reported in Batthyany et al., J Biol Chem, 2006 281:20450-63; read-out: IC50 for GAPDH inhibition

Substance: 9-, 10-, 12- and 13-nitro- cis-octedecadienoic acids [nitro-linoleic acid]
- IC50: 3 µM
